One compound from patent US11608331B2 (priority 2021, dated 2023) can be followed below.

Test [1] has as its target SARS-CoV-2 Mpro (Severe acute respiratory syndrome coronavirus 2, UniProt P0DTD1). The test can be described thus: Main protease (Mpro) assay, 3CL Protease assay kit. It is filed as biochemical. Conditions: read-out: inhibition activity against Mpro enzyme (inhibition percentage).
Test [2] addresses SARS-CoV-2 PLpro (Severe acute respiratory syndrome coronavirus 2, UniProt P0DTD1). The test can be described thus: Papain-like protease (PLpro) assay. The format is biochemical. Conditions: screening; mean±SEM of 3 replicas.

As a reminder, the inhibition is the share of the control response that was lost under treatment. For the compound `N=C(N/N=C/c1ccccc1O)c1nonc1NCNc1nonc1C(=N)N/N=C/c1ccccc1O` [Compound 13], the inhibition at 100 µg/mL in test [1] was 69.8%. Besides, in test [2], the “inhibition activity against SARS-CoV-2 PLpro” value is 80%.
